Molecular target: T1, BCL-2-D111A (Homo sapiens, UniProt P10415, D111A/DEL35-91/INS34DVEENRTEAPEGTESE)
T1 construct: A chimeric human BCL-2 (including residues 1–50 and 92–207) was constructed; SUMO (pET28a-Sumo vector); made in house; host or cells: E. coli BL21 (DE3)
Assay: SPR binding assay, BCL-2 D111A mutant
Details: affinity fitting, mean ± SD of three independent experiments

Amino acid sequences for entries named in this document (tags omitted). Chains listed by the source or under a name are the forms on record and can include a tag or linker.
UniProt P10415, with tags, fused parts or gaps with the stated changes: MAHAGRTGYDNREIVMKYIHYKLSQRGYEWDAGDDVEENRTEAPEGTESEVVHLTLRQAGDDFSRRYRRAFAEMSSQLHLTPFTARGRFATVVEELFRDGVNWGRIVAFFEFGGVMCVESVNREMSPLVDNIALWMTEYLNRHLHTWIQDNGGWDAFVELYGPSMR

Kd: 6 ± 3 nM
SMILES: O=C(c1cc(-c2cc3c(cc2C(=O)N2Cc4ccccc4C[C@H]2CN2CCOCC2)OCO3)n2c1CCCC2)N(c1ccccc1)c1ccc(O)cc1 [S55746]
